Publication PMC5864730, “Peptide ion channel toxins from the bootlace worm, the longest animal on Earth” (Scientific Reports, 2018)

Sequences of proteins named here, by UniProt entry; tags and fusion partners are left off.
UniProt Q9WTU3, whole entry: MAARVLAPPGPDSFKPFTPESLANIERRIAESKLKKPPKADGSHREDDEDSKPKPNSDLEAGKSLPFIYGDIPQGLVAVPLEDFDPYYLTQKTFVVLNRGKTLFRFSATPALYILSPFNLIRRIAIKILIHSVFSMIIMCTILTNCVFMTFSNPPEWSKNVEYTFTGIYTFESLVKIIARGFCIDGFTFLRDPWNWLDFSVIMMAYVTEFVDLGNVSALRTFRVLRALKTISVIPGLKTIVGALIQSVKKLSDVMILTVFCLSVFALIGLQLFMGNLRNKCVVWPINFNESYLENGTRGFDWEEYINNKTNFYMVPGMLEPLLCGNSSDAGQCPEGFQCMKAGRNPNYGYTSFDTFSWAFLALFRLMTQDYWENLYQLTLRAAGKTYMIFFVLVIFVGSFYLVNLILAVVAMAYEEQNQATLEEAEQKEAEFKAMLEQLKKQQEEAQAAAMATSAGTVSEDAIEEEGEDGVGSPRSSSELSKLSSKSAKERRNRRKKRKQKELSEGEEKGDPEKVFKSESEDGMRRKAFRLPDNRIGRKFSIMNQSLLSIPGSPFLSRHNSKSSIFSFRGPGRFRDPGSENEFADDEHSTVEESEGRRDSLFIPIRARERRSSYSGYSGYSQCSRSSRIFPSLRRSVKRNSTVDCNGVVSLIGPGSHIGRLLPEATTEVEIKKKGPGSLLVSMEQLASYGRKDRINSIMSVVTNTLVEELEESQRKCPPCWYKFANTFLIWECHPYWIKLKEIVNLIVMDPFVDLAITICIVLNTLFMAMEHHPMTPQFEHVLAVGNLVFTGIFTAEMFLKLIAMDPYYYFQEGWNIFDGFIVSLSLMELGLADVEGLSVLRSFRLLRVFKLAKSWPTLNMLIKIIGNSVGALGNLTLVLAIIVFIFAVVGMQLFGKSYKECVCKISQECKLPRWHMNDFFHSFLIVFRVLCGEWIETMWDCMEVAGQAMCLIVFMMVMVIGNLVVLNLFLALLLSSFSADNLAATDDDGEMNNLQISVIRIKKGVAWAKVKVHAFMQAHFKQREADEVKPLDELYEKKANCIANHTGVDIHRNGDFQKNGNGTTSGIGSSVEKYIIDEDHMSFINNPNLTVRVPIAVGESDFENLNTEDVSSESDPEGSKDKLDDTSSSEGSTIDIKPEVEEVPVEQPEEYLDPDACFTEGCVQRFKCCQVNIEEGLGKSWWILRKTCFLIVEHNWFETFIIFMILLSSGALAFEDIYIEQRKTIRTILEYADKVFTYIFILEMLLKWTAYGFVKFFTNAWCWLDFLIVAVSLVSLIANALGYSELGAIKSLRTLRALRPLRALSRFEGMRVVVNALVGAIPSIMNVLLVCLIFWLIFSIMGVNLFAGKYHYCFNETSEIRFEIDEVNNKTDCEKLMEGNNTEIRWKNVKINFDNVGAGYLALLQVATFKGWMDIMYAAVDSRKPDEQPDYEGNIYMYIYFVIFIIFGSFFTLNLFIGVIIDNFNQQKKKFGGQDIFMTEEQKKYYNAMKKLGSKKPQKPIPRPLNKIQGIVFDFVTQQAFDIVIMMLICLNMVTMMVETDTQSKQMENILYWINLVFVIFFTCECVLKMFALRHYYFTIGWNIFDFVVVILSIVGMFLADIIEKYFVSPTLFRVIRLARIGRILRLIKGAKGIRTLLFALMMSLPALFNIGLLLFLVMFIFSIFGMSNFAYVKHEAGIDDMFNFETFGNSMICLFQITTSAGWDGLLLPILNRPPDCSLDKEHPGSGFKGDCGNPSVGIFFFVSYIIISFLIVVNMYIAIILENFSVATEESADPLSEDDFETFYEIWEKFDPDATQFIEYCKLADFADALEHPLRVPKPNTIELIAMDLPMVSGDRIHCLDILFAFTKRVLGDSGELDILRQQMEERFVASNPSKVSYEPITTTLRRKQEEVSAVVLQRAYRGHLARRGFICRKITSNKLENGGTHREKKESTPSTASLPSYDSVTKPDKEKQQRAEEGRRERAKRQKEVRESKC

Target: T1, NaV1.6 (Mus musculus, UniProt Q9WTU3)
T1 construct: expressed in transfected cells; host or cells: Xenopus laevis oocytes (cRNA injection)
Test: Two-electrode voltage clamp on NaV1.6 in Xenopus laevis oocytes
Format: biochemical, human
Details: 18–22 °C, ND96, mean ± S.E.M., n ≥ 3
Excerpt: Complementary DNA encoding the NaV-channels was subcloned into the corresponding vector: the α-subunits rNaV1.1/pLCT1(NotI), rNaV1.4/pUI-2(NotI), hNaV1.5/pcDNA3.1(XbaI), mNaV1.6/pLCT(NotI), cockroach Blattella germanica BgNaV1.1/pGH19(NotI), Drosophila melanogaster DmNaV1, Varroa destructor VdNaV1, and the corresponding β-subunits rβ1/pSP64T(EcoRI) and Drosophila melanogaster TipE/pGH19(NotI). The linearized plasmids—respective restriction enzymes are indicated in parentheses—were transcribed using the T7 (for rNaV1.1, rNaV1.4, mNaV1.6, BgNaV1.1, TipE) or the SP6 (for hNaV1.5 and rβ1) mMESSAGE-mMACHINE transcription kit (Ambion, Austin, TX). The harvesting of stage V-VI oocytes from anaesthetized female Xenopus laevis frogs was described previously. Oocytes were injected with 50–70 nl of cRNA at a concentration of 1–3 ng/nl using a micro-injector (Drummond Scientific, Broomall, PA). […]
Whole-cell currents from oocytes were recorded at room temperature (18–22 °C) by the two-electrode voltage clamp technique using a GeneClamp 500 amplifier (Molecular Devices, Sunnyvale, CA) controlled by a pClamp data acquisition system (Molecular Devices). […] All data was analyzed using pClamp Clampfit 10.0 (Molecular Devices®, Downingtown, PA) and Origin 7.5 software (Originlab®, Northampton, MA) and is presented as mean ± standard error (S.E.M) of at least 3 independent experiments (n ≥ 3).

## CC[C@H](C)[C@@H]1NC(=O)[C@@H](NC(=O)CN)CSSC[C@@H]2NC(=O)[C@@H]3CSSC[C@@H](C(=O)N[C@@H](CC(N)=O)C(=O)N4C[C@H](O)C[C@H]4C(=O)N4C[C@H](O)C[C@H]4C(=O)N[C@@H](CC(N)=O)C(=O)N[C@@H](CCC(N)=O)C(=O)O)NC(=O)[C@H](CCCCN)NC(=O)[C@H](Cc4ccccc4)NC(=O)[C@H](CC(N)=O)NC(=O)[C@H](Cc4c[nH]c5ccccc45)NC(=O)CNC(=O)[C@H](CSSC[C@H](NC(=O)[C@H](Cc4ccccc4)NC(=O)[C@H](CO)NC(=O)CNC(=O)[C@H]([C@@H](C)O)NC(=O)[C@H](C)NC1=O)C(=O)N[C@@H]([C@@H](C)O)C(=O)N[C@@H](CC(C)C)C(=O)N[C@@H](CO)C(=O)N[C@@H](CCCCN)C(=O)NCC(=O)N3)NC(=O)[C@H](CC(N)=O)NC(=O)[C@H](CCCCN)NC(=O)[C@H]([C@@H](C)O)NC2=O [α-1]
  EC50: 800 ± 100 nM
